{"source": "patent US12209112B2", "about": "“Methods of preventing or treating diseases, conditions, or disorders associated with chemotherapy” (The Chinese University of Hong Kong, priority 2022, dated 2025)", "test_system": "hESC-CMs", "test": "α-actinin immunostaining for sarcomeric integrity", "type": "cell-based, human", "description": "hESC-CMs were permeabilized using 0.1% Triton X-100 (Thermo Fisher Scientific, USA). After permeabilizing for 15 minutes, cells were washed three times in PBS, and further permeabilization was blocked by incubating cells in PBS with 10% FBS (Hyclone, USA) for 1 hour at room temperature. Cells were incubated with the primary anti-actinin antibody (1:400) (Abcam, UK) and diluted in PBS with 10% FBS overnight. Cells were then washed three times with PBS and incubated with a goat anti-mouse IgG1 secondary antibody (1:1000 diluted in PBS with 10% FBS) (Thermo Fisher Scientific, USA) for 1 hour at room temperature. Finally, cells were washed twice with PBS and mounted using ibidi mounting medium with DAPI (Ibidi, Germany). Microscopic images were acquired using the DMi8s Research Inverted Thunder Imager Live Cell System (Leica, Germany) at 20×, 40×, and 100× magnification.", "data": [{"compound": "C[C@@H](CN1CC(=O)NC(=O)C1)N1CC(=O)NC(=O)C1.Cl", "note": "[Dex, 4,4′-[(1S)-1-Methyl-1,2-ethanediyl]bis-2,6-piperazinedione hydrochloride, reference compound]", "values": [{"measurement": "sarcomeric damage (α-actinin immunostaining)", "value": "sarcomeric damage was evidently attenuated"}]}]}
